Target: Recombinant HLA-A*201 (Homo sapiens, UniProt P04439, D140Y/D185E/D98H/E176V/E277Q/G131W/G231S/I119V/I121R/I166T/I218V/L300P/L318F/N151K/N90K/P208A/P217A/Q86G/Q94H/R138H/R169H/T345S)
Test: biochemical
Assay type: binding

| SMILES | IC50 [µM] |
| --- | --- |
| CC(C)C[C@H](NC(=O)[C@H](Cc1ccccc1)NC(=O)[C@@H](NC(=O)[C@H](CCC(=O)O)NC(=O)[C@H](Cc1c[nH]c2ccccc12)NC(=O)[C@H](CCCCN)NC(=O)[C@H](Cc1ccc(O)cc1)NC(=O)[C@@H](NC(=O)[C@@H](N)CCC(N)=O)[C@@H](C)O)[C@@H](C)O)C(=O)O [93-101] | 7 |
| CC(C)C[C@H](NC(=O)[C@H](Cc1ccccc1)NC(=O)[C@@H](NC(=O)[C@H](CCC(=O)O)NC(=O)[C@H](Cc1c[nH]c2ccccc12)NC(=O)[C@H](CCCCN)NC(=O)[C@H](Cc1ccc(O)cc1)NC(=O)[C@@H](NC(=O)[C@@H](N)CCC(N)=O)[C@@H](C)O)[C@@H](C)O)C(=O)N[C@H](C(=O)O)[C@@H](C)O [93-102] | 4 |

— patent EP1211260A1, “Peptides from Ag85 of mycobacterium and uses thereof” (priority 2000, dated 2002)
